Test results taken from US6884809B2 (Cornell Research Foundation, Inc., priority 2001, dated 2005).

System: Na+/H+ exchanger (NHE)
Assay: NHE activity: Na+-dependent pHi recovery after NH4Cl acid pulse in BCECF-loaded SKNMC-H3 cells
Type: cell-based, human
Conditions: imetit 100 nM, n=277 cells, control 0.074

N=C(N)SCCc1c[nH]cn1 [imetit, Imetit]
mean rate of Na+-dependent pHi recovery (NHE activity): 0.048±0.002 pHi units/min
